How the values were obtained:
Assay type in all cases: cell-based, mouse
Smad5 = assay: Immunoblotting of Smad5 phosphorylation in 10T1/2 whole cell lysates; conditions: BMP-2 15 nM, 60 min
Protocol: (§1) 10T1/2 cells were incubated in supplemented FluoroBrite plus R3-IGF1 [1 nM], PDGF-BB [206 pM], BMP-2 [15 nM]), 10% FBS, or vehicle. Cells were imaged every 2-min for 60 min. At the end of the incubation period whole cell lysates were collected.
(§2) Whole cell protein lysates were prepared as described (Mukherjee A and Rotwein P, Mol Endorcrinol 22, 1238-1250 (2008); incorporated by reference herein). Protein aliquots (15 μg/lane) were resolved by SDS-PAGE (12% separating gel), followed by transfer to Immobilon-FL membranes, and blocking with 50% AquaBlock solution. Membranes were incubated sequentially with primary and secondary antibodies, as described (Mukherjee and Rotwein, 2008 supra). Primary antibodies were incubated for 12-16 hr at a 1:1000 dilution, except for α-tubulin (1:10,000), and secondary antibodies for 90 min at 1:5000. Images were captured using the LiCoR Odyssey and version 3.0 analysis software (Lincoln, Nebr.).

Akt phosphorylation = assay: Immunoblotting of Akt and PRAS40 phosphorylation in 10T1/2 whole cell lysates; conditions: 60 min; 10% FBS, PDGF-BB 206 pM, R3-IGF-I 1 nM, BMP-2 15 nM
Protocol: as §1, §2
C3H10T1/2 cells stably expressing FoxO1-clover were incubated in SFM with Fluorobrite imaging media for 90 min followed by addition of insulin [1400 pM], EGF [4.2 nM], PDGF-AA [1400 pM], or PDGF BB [104 pM]. […]

Akt = assay: FOXO1-clover reporter live-cell imaging (relative nuclear intensity) in C3H10T1/2 fibroblasts; conditions: serum-starved cells, 60 min; 10% FBS, PDGF-BB 206 pM, R3-IGF-I 1 nM, BMP-2 15 nM
Protocol: Cells were imaged every 2-min for 60 min. At the end of the incubation period whole cell lysates were collected.
10T1/2 cells and C2 myoblasts were incubated in serum-free medium for 90 min. R3-IGF-I was added in supplemented FluoroBrite [0 to 500 pM], and cells were imaged every 2-min for 60 min. […]
Live cell imaging was performed using an EVOS FL Auto microscope with a stage top incubator that was maintained at 37° C. and 95% humidified air with 5% CO2. Images were collected at 100× magnification at different intervals, using a 10× Fluorite objective (numerical aperture: 0.3), and a GFP light cube (excitation peak, 472/22 nm; emission peak, 510/42 nm). Images were analyzed with the NIH ImageJ plug-in Fiji (NIH, Bethesda, Md.), after using the Polynomial Fit plug-in to subtract background fluorescence, the Stack Reg (rigid registration) plug-in to register images, and the Gaussian Blur plug-in (at 2-pixels) to average fluorescence across pixels. Individual cells were manually tracked using the mTrackJ plug-in (Meijering E et al, Methods Enzymol 504, 183-200 (2012); incorporated by reference herein) by selecting a single point in the nucleus. Cells that died, divided, or migrated out of frame were excluded from analysis.

B1: BMP-2: recombinant human BMP-2 (R&D Systems) (protein, UniProt P12643 283-396, looked up)
Bone morphogenetic protein 2: QAKHKQRKRLKSSCKRHPLYVDFSDVGWNDWIVAPPGYHAFYCHGECPFPLADHLNSTNHAIVQTLVNSVNSKIPKACCVPTELSAISMLYLDENEKVVLKNYQDMVVEGCGCR
Smad5
  Smad5 phosphorylation (immunoblot): did stimulate phosphorylation of Smad5
Akt phosphorylation
  Akt phosphorylation (pAkt T308 immunoblot): minimal Akt phosphorylation
Akt
  subcellular localization of FOXO1-clover (result in words): predominantly nuclear localization of FOXO1-clover
